According to patent publication US8030452B2, “IFBM'S to promote the specific attachment of target analytes to the surface of orthopedic implants” (priority 2004, dated 2011):

target: T1, BMP-2 (Homo sapiens, UniProt P12643); assay: Solution-phase BMP-2 binding assay of biotinylated peptides (streptavidin capture, anti-BMP antibody); conditions: 37° C., read-out: Estimated Affinity for BMP-2
T1 construct: purchased Medtronic
T1 sequence (P12643 283-396): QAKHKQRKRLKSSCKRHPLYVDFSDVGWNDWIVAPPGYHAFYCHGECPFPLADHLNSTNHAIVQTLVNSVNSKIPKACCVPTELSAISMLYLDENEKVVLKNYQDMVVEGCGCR
Method: To confirm these BMP binding results, the peptides were also tested in an alternate assay format in which the peptide and BMP2 were allowed to bind in solution and then assayed. Briefly, the peptides were synthesized with a biotin group attached to the ε amino group of a lysine residue at the C-terminus of the peptide. The biotinylated peptides (0-12 pmoles) were mixed with BMP-2 (0-25 pmoles) in solution and allowed to incubate at 37° C. for 30 minutes in a polypropylene plate. The solutions were transferred to a streptavidin-coated plate and incubated for 1 hour at 37° C. to capture the biotinylated peptides. Plates were washed in TBS-Tween™ 20 and then incubated with an anti-BMP antibody (1:1000 dilution; R&D systems) for 1 hour at RT. After washing, an alkaline phosphatase-labeled secondary antibody was then added to the plate and incubated at RT for 30 minutes. The plates were washed with TBS-Tween™ 20 and the antibody binding was detected using the chromogenic AP substrate pNPP.

Row | Sequence | Kd [µM]
1 | SSSVDLYFPLKGDVVSR [compound 2012] | 0.009
2 | SSFEPLRFPLKGVPVSR [compound 2009] | 0.01
3 | SRGGEAAAGAWVSFSALESSR [compound 2007] | 0.079
4 | SSDWGVVASAWDAFEALDASR [compound 2011] | 0.055
